Patent US20230406906A1, “SERPIN PEPTIDES AND METHODS OF USING THE SAME” (SERPIN PHARMA, LLC, priority 2022, published 2023)

Amino acid sequences for entries named in this document (tags omitted). Residues count along the entry.
UniProt G3V928, 20-3944 limits assumed: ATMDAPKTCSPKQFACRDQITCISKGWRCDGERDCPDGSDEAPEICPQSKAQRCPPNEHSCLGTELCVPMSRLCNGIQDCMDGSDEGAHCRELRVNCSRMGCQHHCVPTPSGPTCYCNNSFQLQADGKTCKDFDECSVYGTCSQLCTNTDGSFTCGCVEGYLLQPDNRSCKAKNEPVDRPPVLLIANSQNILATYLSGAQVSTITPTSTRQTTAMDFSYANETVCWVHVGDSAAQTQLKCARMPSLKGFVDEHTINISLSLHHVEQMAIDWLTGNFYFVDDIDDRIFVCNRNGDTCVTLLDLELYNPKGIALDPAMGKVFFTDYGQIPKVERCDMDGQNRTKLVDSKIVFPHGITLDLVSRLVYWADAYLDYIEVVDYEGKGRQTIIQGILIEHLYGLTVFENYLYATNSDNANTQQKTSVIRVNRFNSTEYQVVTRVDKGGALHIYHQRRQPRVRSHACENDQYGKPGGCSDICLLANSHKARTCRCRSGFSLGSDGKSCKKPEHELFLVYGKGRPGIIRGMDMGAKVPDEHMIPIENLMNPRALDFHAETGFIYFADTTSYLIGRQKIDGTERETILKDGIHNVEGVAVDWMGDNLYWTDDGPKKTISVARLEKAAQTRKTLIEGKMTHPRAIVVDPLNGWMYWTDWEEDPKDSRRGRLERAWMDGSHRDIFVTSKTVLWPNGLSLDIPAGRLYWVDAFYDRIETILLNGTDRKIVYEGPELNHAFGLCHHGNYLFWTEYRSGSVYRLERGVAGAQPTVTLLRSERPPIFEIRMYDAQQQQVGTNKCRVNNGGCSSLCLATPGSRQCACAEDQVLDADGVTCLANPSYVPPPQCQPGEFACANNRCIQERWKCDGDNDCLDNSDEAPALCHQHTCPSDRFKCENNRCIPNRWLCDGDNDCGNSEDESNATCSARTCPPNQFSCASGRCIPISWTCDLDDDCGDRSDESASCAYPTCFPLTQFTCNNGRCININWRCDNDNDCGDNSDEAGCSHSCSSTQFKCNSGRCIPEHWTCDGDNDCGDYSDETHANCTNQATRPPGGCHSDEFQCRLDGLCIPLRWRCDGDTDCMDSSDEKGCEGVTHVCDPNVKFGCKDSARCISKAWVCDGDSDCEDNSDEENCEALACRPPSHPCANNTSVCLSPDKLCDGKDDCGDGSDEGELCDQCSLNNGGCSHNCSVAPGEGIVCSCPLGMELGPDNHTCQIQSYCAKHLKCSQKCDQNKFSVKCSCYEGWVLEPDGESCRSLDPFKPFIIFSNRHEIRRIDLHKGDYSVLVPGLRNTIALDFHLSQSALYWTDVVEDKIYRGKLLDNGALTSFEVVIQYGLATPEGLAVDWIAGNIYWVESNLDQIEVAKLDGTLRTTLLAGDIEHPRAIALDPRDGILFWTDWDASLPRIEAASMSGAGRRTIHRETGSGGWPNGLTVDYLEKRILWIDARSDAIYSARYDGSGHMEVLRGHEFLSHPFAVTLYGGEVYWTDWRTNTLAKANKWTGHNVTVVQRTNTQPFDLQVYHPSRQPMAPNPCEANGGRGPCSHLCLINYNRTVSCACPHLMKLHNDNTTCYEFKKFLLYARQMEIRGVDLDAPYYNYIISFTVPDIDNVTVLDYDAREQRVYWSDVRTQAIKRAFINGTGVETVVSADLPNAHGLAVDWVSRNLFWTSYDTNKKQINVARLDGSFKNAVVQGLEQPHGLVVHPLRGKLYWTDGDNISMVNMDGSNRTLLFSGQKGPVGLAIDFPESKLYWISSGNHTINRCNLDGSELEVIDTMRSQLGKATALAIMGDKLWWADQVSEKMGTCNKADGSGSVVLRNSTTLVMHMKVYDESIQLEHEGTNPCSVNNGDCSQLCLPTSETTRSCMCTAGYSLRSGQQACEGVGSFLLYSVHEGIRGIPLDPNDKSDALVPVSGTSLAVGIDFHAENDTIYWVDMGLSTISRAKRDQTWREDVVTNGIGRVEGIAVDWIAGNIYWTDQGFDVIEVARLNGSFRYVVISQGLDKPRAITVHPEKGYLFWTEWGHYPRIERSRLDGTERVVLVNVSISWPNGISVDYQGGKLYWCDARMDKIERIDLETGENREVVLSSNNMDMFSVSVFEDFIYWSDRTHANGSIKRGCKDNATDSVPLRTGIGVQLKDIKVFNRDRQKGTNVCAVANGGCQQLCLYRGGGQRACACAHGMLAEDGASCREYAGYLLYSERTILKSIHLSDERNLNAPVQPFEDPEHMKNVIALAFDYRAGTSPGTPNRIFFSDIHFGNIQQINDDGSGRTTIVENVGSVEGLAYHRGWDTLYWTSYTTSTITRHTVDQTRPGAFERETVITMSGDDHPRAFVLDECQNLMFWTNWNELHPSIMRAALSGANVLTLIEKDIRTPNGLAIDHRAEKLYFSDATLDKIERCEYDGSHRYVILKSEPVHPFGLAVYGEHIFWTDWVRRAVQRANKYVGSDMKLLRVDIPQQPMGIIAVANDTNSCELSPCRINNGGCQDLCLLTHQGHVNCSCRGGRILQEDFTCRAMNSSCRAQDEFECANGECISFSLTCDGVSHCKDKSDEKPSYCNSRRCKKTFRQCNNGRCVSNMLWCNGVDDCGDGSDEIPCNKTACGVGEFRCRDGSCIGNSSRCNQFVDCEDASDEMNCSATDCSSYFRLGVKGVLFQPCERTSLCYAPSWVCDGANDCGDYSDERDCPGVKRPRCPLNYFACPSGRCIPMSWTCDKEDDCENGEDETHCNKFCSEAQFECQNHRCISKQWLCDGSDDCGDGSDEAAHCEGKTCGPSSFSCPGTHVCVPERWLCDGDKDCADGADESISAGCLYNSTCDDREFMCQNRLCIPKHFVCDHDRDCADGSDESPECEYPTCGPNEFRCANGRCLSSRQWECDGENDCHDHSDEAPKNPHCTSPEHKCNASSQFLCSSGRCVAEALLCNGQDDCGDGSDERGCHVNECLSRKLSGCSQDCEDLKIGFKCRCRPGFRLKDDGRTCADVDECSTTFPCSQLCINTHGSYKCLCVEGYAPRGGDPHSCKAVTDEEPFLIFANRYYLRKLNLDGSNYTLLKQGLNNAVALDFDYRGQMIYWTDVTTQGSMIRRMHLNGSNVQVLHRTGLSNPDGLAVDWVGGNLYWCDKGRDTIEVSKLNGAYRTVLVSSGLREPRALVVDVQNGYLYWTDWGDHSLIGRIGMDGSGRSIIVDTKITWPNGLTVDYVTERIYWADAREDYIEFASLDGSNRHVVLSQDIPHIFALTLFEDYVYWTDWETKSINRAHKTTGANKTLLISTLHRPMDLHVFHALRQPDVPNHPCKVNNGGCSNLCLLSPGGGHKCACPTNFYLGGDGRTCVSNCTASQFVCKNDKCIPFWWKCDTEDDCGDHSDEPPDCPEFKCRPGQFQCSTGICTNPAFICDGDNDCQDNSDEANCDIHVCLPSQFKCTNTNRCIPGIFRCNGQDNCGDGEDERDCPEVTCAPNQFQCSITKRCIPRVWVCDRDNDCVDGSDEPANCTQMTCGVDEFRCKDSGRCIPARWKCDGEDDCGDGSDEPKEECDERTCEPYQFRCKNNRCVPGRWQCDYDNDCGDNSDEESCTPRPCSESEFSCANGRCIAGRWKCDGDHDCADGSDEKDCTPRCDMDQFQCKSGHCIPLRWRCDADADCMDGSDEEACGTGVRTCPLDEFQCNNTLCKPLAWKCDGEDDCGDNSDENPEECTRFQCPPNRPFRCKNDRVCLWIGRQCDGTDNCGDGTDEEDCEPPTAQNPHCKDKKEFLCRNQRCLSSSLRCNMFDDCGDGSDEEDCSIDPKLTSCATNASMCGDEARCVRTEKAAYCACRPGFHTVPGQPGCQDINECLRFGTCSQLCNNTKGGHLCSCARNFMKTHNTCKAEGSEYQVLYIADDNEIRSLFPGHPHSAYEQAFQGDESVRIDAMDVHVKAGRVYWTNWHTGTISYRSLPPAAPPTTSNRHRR
UniProt G3V928, 3945-4545 partner limits assumed: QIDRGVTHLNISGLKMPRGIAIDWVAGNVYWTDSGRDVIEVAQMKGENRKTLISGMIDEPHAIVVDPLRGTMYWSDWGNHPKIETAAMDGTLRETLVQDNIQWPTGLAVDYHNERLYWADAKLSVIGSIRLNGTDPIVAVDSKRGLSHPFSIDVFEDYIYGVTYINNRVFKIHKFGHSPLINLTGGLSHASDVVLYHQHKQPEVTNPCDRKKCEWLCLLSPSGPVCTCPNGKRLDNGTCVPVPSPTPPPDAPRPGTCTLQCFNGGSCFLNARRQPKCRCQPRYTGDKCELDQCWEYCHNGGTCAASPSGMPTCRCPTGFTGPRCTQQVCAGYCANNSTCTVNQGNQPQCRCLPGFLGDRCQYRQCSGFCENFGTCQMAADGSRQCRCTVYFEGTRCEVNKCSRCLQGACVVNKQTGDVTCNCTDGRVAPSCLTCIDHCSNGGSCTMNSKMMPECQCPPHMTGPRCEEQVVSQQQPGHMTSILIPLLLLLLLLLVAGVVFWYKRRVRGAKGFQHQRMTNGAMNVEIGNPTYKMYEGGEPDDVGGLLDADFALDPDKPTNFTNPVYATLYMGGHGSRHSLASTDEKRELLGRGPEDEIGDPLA

Columns and labels:
[1] = test system: GAP-43; assay: RT-qPCR of GAP-43 mRNA in primary cultured adult DRG neurons; assay type: cell-based, rat; details: 240 nM, 24 h, vs vehicle
Experimental: Neurite outgrowth in primary cultures of adult DRG neurons: Primary DRGs neurons were isolated from adult male Sprague Dawley rats and cultured as previously described for mice with modifications.^53 The DRGs were stripped of their roots and collected in Hanks Buffered Salt Solution (HBSS) on ice. DRGs were enzymatically digested and approximately 4000 DRG neurons were plated in each well of a 12-well tissue culture plate (Thermo Fisher Scientific, Waltham, MA, USA). All DRG neurons were cultured at 37° C. in 5% CO2 for 54 h in DMEM/F12 containing 2% B27 and 1% FBS with vehicle or SP163M (0-500 ng/ml) added every 24 h. Primary cultured DRG neurons were imaged by phase contrast and the viability of cells was assessed by Trypan blue. Primary DRG neurons were cultured, fixed in 4% paraformaldehyde, and immunofluorescence was performed using a mouse anti-βIII-tubulin primary antibody (Promega, Madison, WI, USA; cat #G7121, 1:250) and then with Alexa Fluor-488 anti-mouse antibody (Life Technologies, Carlsbad, CA, USA) as secondary antibody. DRG neurons were imaged at 20× and 40× manually, and the longest neurite length per cell was measured in 11 images from multiple wells and separate experiments. Approximately 222 and 144 neurons were measured in SP16 and control groups, respectively. Quantification was performed in a blinded manner. […]

[2] = molecular target: T1, LRP1 (Rattus norvegicus, UniProt G3V928); assay: Cell signaling analysis in PC12 cells (phospho-ERK1/2, phospho-Akt immunoblot); assay type: cell-based
T1 construct: host or cells: rat PC12 cells
Experimental: Cell signaling analysis: Rat PC12 cells were purchased from ATCC (CRL-1721). PC12 cells were maintained in high glucose DMEM (Gibco, USA) containing 10% heat-inactivated FBS (Gibco, USA), 5% HyClone heat-inactivated horse serum (Cytiva, USA), penicillin (100 units/ml) and streptomycin ([…]) in 6-well plates that were pre-coated with 0.01 mg/ml type IV collagen (Sigma-Aldrich, St. Louis, MO, USA). Cells were transferred to serum-free medium (SFM) 4 h prior to adding effectors, and then treated with SP163M (2.4, 24 or 240 nM); EI-tPA (12 nM), NGF (0.36 nM), or vehicle (PBS) for 10 min. In some cases, cells were pre-incubated with the competitive antagonist of LRP1, GST-RAP (150 nM) for 15 min or electroporated using the Rat Neuron Nucleofector Amaxa Kit (Lonza Biosciences) and incubated with siRNA to silence LRP1 expression (siLRP1; M-094191-01-0010, Dharmacon) for 48 h. Control cells were transfected with non-targeting control (NTC) siRNA (NTC; D-001810-10-05, Dharmacon). […] Equal amounts of protein from cell lysates (20 μg), as determined by BCA Protein Assay (ThermoFisher Scientific, Waltham, MA, USA), were subjected to 10% SDS-PAGE and electro-transferred to nitrocellulose membranes. […]

[3] = test system: C57BL/6J mice; assay: Intraplantar capsaicin model of acute nociception; assay type: in vivo; details: male mice, 2 μg/g 1 h before capsaicin, 10 min
Experimental: For the capsaicin studies, male (n=41) and female (n=37) mice were acclimated to the behavior testing facility for at least 1 h. Capsaicin was dissolved in 20% (2-hydroxypropyl)-β-cyclodextrin (Sigma-Aldrich, St. Louis, MO, USA) solution. […] Subsequently, 10 μl of 2 μg/μl capsaicin solution was injected into the plantar area of left hind paw. Immediately after capsaicin injection, mice were placed in a plexiglass box. Two observers, blinded to treatments, recorded the time spent licking and flinching the left hind paw over 10 min.

[4] = test system: IκBα; assay: TNFα induced phospho-IkBa (Ser32) immunoblot in HaCat cells; assay type: cell-based, human; details: TNF-α
Experimental: Cells were pretreated with either vehicle or SP163M (100 μg/ml). TSLP was measured in the supernatant via ELISA (p=0.0045 vs. vehicle treated Poly IC induced cells). FIG. 10B: HaCat cells treated as in FIG. 10A were analyzed via the CellTiter-Glo® Luminescent Cell Viability Assay by Promega. The percent change from untreated (no Poly IC) cells were compared between SP163M vs. vehicle treated poly IC induced control (p=0.0068). FIG. 10C: HaCat cells were insulted with TNFα and immunoblotted for phospho-IkBa (Ser32). GAPDH served as a loading control and signal normalization.
TNFα treatment led to phosphorylation of IκBα (inhibitor of nuclear factor kappa B), which then activated NFκB. Therefore, in a model of skin inflammation, SP163M shut down a key inflammatory pathway (FIG. 10C).

[5] = test system: Balb/C mice; assay: Calcipotriol (MC903)/OVA induced atopic dermatitis model, eosinophils by MBP staining; assay type: in vivo
Experimental: Dermatitis was induced on the skin of BALB/c mice with a series of calcipotriol (MC903) and OVA challenges over an 8-week period. SP163M (100 μg/mouse), A1AT (2 mg/mouse) or vehicle (DDW) was given twice weekly starting at 4 weeks. The number of eosinophils infiltrating the epithelial sections were quantified by MBP staining.
Accordingly, SP163M improved outcomes in the atopic dermatitis animal model.

CCCC[C@H](NC(=O)[C@H](CC(C)C)NC(=O)[C@H](Cc1ccccc1)NC(=O)[C@@H](NC(=O)[C@H](Cc1ccccc1)NC(=O)[C@@H]1CCCN1C(=O)[C@H](CCCCN)NC(=O)[C@H](CC(N)=O)NC(=O)[C@H](Cc1ccccc1)NC(=O)[C@H](CCCCN)NC(=O)[C@@H](NC(C)=O)C(C)C)C(C)C)C(=O)N[C@H](C(=O)N[C@@H](CCC(=O)O)C(=O)N[C@@H](CCC(N)=O)C(=O)N[C@@H](CC(N)=O)C(=O)N[C@H](C(=O)N[C@@H](CCCCN)C(N)=O)[C@@H](C)O)[C@@H](C)CC [SP163M, Ac-VKFNKPFVFLNIeIEQNTK-NH2]
GAP-43 mRNA levels [1]: significantly increased the regenerative associated gene compared to vehicle | activation of Akt and ERK1/2, with and without RAP ([2]; 10 min, 24 or 240 nM, RAP 150 nM pretreatment 15 min): activated Akt and EKR1/2 in PC12 cells after 10 min that was blocked by the addition of the 39 kDa LRP1 antagonist, RAP | activation of ERK1/2 in cells transfected with LRP1-specific siRNA ([2]; 48 h after transfection): ERK1/2 was not activated | capsaicin induced acute pain-related behavior (time spent licking) [3]: blocked the capsaicin induced acute pain-related behavior | phosphorylation of IκBα [4]: inhibited the phosphorylation of IκBα by TNF-α | eosinophils per section vs vehicle control ([5]; 100 μg/mouse twice weekly starting at 4 weeks, p=0.045): significantly lower levels of eosinophils per section compared to vehicle control | eosinophilic infiltration compared to A1AT ([5]; 100 μg/mouse vs A1AT 2 mg/mouse): decreased eosinophilic infiltration compared to A1AT given at 20× higher dose
